Measurements taken from EP0942911B1, “BENZOPYRANOPYRROLE AND BENZOPYRANOPYRIDINE ALPHA-1 ADRENERGIC COMPOUNDS” (Abbott Laboratories, priority 1996, dated 1998).

Target: T1, α-1A adrenoreceptor (rat submaxillary gland) (Rattus norvegicus, UniProt P43140)
T1 sequence (P43140 1-466): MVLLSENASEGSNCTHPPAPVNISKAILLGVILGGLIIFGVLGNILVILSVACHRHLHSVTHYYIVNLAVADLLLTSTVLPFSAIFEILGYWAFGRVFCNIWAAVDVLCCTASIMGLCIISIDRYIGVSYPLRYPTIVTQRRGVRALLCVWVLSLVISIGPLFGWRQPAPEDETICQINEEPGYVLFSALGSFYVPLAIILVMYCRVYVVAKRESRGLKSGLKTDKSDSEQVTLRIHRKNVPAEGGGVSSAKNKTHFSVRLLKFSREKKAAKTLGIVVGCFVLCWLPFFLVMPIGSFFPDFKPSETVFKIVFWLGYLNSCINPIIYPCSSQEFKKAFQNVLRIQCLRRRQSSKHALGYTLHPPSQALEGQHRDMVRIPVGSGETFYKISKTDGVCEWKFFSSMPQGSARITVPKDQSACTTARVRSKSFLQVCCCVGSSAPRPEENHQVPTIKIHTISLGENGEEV
Conditions: read-out: Radioligand Binding (Ki, nM) 1A (Rat); [3H]-prazosin radioligand; rat submaxillary gland membranes

Ki: 0.829 nM
Compound: COc1cc2nc(N3CCN(C(=O)C4CCCO4)CC3)nc(N)c2cc1OC (stereo not shown) [Terazosin, terazosin, reference compound]
